Data from patent publication US20030086902A1, “Cytokine-like peptide” (priority 1999, published 2003).

Target: T1, soluble interferon receptor (Homo sapiens, UniProt P17181+P48551)
T1 construct: AR1 is designed to encode the extracellular region of amino acid residues 1 to 436; AR2 is designed to encode the extracellular region of amino acid residues 1 to 243; made in house; host or cells: COS-1 cells, transient co-transfection by DEAE-Dextran; purified from culture medium on Protein A Sepharose CL-4B
T1 sequence (P17181 28-436): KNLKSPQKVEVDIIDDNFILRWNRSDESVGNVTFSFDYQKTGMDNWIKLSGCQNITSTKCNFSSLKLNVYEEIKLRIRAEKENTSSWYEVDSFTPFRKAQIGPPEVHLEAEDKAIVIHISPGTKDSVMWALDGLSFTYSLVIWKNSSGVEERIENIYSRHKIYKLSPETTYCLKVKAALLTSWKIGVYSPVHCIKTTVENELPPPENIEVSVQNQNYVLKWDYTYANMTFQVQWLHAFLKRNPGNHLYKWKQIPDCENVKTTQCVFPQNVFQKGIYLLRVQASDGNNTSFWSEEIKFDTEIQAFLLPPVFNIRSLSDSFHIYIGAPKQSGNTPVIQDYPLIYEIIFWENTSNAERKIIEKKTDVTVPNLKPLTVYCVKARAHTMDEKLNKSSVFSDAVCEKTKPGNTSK
T1 sequence (P48551 27-243): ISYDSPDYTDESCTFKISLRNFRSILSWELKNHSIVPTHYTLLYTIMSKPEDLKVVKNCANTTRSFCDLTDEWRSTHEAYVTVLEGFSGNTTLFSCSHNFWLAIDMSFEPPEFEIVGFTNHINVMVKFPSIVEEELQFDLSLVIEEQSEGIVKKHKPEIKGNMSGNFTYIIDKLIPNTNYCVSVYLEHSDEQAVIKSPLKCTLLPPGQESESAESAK
Test: solid-phase ligand binding assay using a soluble interferon receptor
Settings: control human IgG1 instead of the receptor
Procedure: Total RNA was extracted from 2×10^6 human FL cells using Isogen (Nippon Gene Co. Ltd.). 1 μg of total RNA was isolated from genes existing in the extracellular region of interferon receptors AR1 and AR2 strands by PCR using the following primers.
AR1 is designed to encode the extracellular region of amino acid residues 1 to 436 (Uze, G. et al., Cell, 60, 225-234 (1990)) and AR2 is designed to encode the extracellular region of amino acid residues 1 to 243 (Domanski, P. et al., J. Biol. Chem., 270, 21606-21611 (1995)). The resultant PCR fragment was connected to EcoRI site and BamHI site of vector HuIgG1/SRα for expressing a fusion protein with a human IgG1Fc region. The constructed expression vector was subjected to co-transfection with COS-1 cell by the DEAE-Dextran method, thereby transiently expressing a protein. The soluble interferon receptor, produced in the culture solution, was purified using Protein A Sepharose CL-4B column (Amersham Pharmacia Biotech). The purified soluble interferon receptor (1 μg/ml) was allowed to react on a 96-well microplate (Maxisorp, Nunc) at 100 μl/well at 4° C. overnight to be immobilized on the microplate. […] Thus, the absorbance at 450 nm was measured. […] Further, when human interferon β was not added to this system, a signal was not detected. […]

binding to control human IgG1: did not bind
Substance: interferon β: interferon β (Feron, Toray Industries, Inc.), used as control
